The assay concerns the target T1, human aldosterone synthase (CYP11B2) (Homo sapiens, UniProt P19099).
T1 construct: expressed in transfected cells; host or cells: V79 MZh11B2 (V79 Chinese hamster cells)
T1 sequence (P19099 25-503): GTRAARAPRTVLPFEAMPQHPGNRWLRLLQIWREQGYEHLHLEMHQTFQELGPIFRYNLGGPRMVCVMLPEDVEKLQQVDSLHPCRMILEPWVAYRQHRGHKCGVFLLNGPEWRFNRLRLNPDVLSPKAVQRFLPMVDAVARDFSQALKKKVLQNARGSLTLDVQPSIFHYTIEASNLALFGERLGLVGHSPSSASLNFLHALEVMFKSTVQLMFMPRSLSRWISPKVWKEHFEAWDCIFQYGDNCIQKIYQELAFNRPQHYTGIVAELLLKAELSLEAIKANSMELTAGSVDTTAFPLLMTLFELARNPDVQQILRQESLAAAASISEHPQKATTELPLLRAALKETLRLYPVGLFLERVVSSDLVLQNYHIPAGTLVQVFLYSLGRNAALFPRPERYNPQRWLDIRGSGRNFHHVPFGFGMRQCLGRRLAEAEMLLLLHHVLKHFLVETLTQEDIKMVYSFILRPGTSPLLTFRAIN
The assay can be described thus: Test for CYP11B2 inhibitors in V79 MZh11B2 cells (test system B). It is filed as cell-based. Conditions: V79MZh11B2, percentage inhibition, inhibitor concentration 0.5 μM, read-out: % (0.5 μM) hCYP11B2.

Where [1] appears, read: Table 1, test system B (V79 MZh11B2).

Read-outs that look alike come from different tables or passages of the source.

As for `CCN1C(=O)CCc2cc(-c3cccnc3)ccc21` [Example 9, 1-Ethyl-6-pyridin-3-yl-3,4-dihydro-1H-quinolin-2-one], under setting [1], the inhibition at 0.5 µM was 93%.
On the same count and under the same terms, for `O=C1CCc2cc(-c3cccnc3)cc(Cl)c2N1` [Example 12, 8-Chloro-6-pyridin-3-yl-3,4-dihydro-1H-quinolin-2-one] the value was 97%.
In the case of `O=C1CSc2cc(-c3cccnc3)ccc2N1` [Example 14, 7-Pyridin-3-yl-4H-benzo[1,4]thiazin-3-one], the inhibition at 0.5 µM (Table 2, test system B) amounted to 92%.
For the compound `O=C1CCc2cc(-c3cccnc3)ccc2N1` [Example 1, 6-Pyridin-3-yl-3,4-dihydro-1H-quinolin-2-one], the inhibition at 0.5 µM under setting [1] turned out to be 88%.

(Values after US8541404B2, “Inhibitors of the human aldosterone synthase CYP11B2” (ElexoPharm GmbH, priority 2009, dated 2013).)
